The values below come from PubChem BioAssay (Tox21).

By UniProt entry, the sequences of proteins in these tests, tags left out.
UniProt P08659, whole entry: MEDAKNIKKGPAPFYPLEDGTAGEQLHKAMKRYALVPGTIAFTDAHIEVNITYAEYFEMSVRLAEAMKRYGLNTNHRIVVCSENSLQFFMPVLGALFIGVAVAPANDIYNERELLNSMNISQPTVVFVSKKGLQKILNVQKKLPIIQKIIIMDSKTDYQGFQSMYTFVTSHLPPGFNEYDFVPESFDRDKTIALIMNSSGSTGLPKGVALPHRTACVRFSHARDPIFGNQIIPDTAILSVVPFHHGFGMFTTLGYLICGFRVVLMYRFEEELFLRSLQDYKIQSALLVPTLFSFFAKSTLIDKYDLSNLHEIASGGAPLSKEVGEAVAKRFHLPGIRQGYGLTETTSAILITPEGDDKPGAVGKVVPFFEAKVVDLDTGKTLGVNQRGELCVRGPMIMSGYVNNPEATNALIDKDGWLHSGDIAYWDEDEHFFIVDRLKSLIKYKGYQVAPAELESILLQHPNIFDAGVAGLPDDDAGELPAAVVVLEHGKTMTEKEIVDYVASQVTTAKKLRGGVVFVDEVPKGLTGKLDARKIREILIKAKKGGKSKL
UniProt P16473, whole entry: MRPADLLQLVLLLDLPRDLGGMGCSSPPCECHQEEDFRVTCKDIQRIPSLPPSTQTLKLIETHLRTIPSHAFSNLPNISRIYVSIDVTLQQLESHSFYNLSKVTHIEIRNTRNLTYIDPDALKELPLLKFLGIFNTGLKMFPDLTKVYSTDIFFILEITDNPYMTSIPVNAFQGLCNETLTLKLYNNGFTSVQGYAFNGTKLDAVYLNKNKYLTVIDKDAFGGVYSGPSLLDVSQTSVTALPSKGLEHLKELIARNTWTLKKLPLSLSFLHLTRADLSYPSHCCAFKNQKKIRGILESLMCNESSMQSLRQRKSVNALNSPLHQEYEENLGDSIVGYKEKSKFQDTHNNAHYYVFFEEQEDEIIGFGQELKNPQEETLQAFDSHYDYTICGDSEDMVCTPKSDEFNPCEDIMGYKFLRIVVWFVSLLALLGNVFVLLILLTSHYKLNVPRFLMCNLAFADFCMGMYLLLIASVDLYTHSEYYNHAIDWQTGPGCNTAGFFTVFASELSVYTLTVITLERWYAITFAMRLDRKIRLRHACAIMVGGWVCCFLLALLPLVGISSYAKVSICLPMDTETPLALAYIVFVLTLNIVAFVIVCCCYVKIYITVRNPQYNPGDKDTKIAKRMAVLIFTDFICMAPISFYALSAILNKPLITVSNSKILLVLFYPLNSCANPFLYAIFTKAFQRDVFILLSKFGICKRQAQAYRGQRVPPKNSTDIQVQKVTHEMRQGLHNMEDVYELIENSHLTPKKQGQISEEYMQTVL
UniProt Q14994, whole entry: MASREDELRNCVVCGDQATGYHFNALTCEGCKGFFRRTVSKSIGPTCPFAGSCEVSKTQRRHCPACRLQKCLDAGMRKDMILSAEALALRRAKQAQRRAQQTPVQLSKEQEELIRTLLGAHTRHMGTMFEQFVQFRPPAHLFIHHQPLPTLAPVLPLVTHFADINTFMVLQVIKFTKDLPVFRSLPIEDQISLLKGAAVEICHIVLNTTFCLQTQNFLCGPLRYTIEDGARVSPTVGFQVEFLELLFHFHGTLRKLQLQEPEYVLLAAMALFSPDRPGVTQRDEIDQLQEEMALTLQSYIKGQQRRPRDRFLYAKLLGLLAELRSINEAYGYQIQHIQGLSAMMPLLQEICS

Assay [1] can be described thus: qHTS assay to identify small molecule antagonists of the estrogen related receptor (ERR) signaling pathway from Tox21 library - cell viability counter screen (AID 1224834). Also: nearly all actives have a fitted effect of over 30% in size. As to conditions: ERR reporter cells viability, CellTiter-Fluor, 17.5 h; at 92.4 µM (top of the series). The method in brief:
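ERR reporter cells were plated 6 h before compound addition, then exposed to test compounds in DMSO for 17.5 h at 37 C. Viability was read as CellTiter-Fluor fluorescence after a 30-minute incubation at 37 C.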

Assay [2] addresses Luciferin 4-monooxygenase (Photinus pyralis) (UniProt P08659). Put plainly: qHTS assay to identify small molecule inhibitors of firefly luciferase (AID 1224835). Also: nearly all actives have a fitted effect of over 25% in size. The method in brief: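 Biochemical qHTS: compounds run as interplate titrations against purified firefly enzyme, with D-luciferin and ATP each at its KM concentration. Light output recorded by CCD imaging.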
(In general: Quantitative high-throughput screening tests each substance at several concentrations.)

Assay [3] can be described thus: qHTS assay to identify small molecule agonists of the constitutive androstane receptor (CAR) signaling pathway - cell viability counter screen (AID 1224836). Also: nearly all actives have a fitted effect of over 45% in size. Conditions: HepG2-CYP2B6-hCAR viability, CellTiter-Fluor, 23 h, PK11195 added to every well. The method in brief: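 Double-stable HepG2 hepatoma cells (hCAR plus CYP2B6-2.2kb) are treated for 23 h at 37 C with test compounds in 15-point concentration series. PK11195 at 0.75 uM final is co-added. Cell viability is quantified by CellTiter-Fluor.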

Assay [4] is described as follows: qHTS assay to identify small molecule antagonists of the constitutive androstane receptor (CAR) signaling pathway - cell viability counter screen (AID 1224837). Also: nearly all actives have a fitted effect of over 45% in size. As to conditions: HepG2-CYP2B6-hCAR viability, CellTiter-Fluor, 23 h, co-treated with 50 nM CITCO; at 92.4 µM (top of the series) unless noted. The method in brief:
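HepG2 cells stably expressing hCAR and a CYP2B6-2.2kb reporter were plated and pre-incubated 4 hr at 37 C/5% CO2, then given compounds at 15 concentrations plus 50 nM CITCO (final). After 23 hr, viability was read by CellTiter-Fluor fluorescence.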

Assay [5] can be described thus: qHTS assay to identify small molecule antagonists of the estrogen related receptor signaling pathway with the pleiotropic PPARgamma coactivator (PGC) from Tox21 10K library - cell viability counter screen (AID 1224840; active = well fitted cell-killing curve with a large enough effect in the repeat runs, not every such curve was filed as active; also: nearly all actives have a fitted effect of over 40% in size). Conditions: PGC/ERR reporter cells viability, CellTiter-Fluor, 17.5 h. The method in brief:
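PGC/ERR cells were seeded at 2,000 cells/well and left 6 hours at 37 C/5% CO2 before pin-tool addition of compounds in DMSO. After 17.5 hours at 37 C, CellTiter-Fluor was added and fluorescence read 30 minutes later.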

A short description of assay [6]: qHTS assay to identify small molecule antagonists of the estrogen related receptor signaling pathway with the pleiotropic PPARgamma coactivator (PGC) from Tox21 10K library (AID 1224841; call rule not given here; also: actives are mostly falling curves and most rising ones were filed inactive; nearly all actives have a fitted effect of over 50% in size; also: potency is read from the fitted curve at half-maximal effect).
Assay [7] can be described thus: qHTS assay to identify small molecule agonists of the estrogen related receptor signaling pathway with the pleiotropic PPARgamma coactivator (PGC) from Tox21 10K library (AID 1224842). Also: nearly all actives have a fitted effect of over 15% in size. Conditions: PGC/ERR reporter cell line, luciferase ONE-Glo, 18 h; at 92.4 µM (top of the series). The method in brief: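 PGC/ERR reporter cell line, 2,000 cells per well, incubated 6 h at 37 C before 23 nL compound in DMSO was added. After 18 h at 37 C, One-Glo luminescence read following 30 min at room temperature.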

Assay [8] concerns the target Thyrotropin receptor (Homo sapiens) (UniProt P16473). Put plainly: qHTS assay to identify small molecule agonists of the thyroid stimulating hormone receptor (TSHR) signaling pathway (AID 1224843; calls by dose curve; also: nearly all actives have a fitted effect of over 45% in size). Conditions: TSHR-HEK293 cells, cAMP HTRF, agonist mode, 30 min.
Assay [9] is described as follows: qHTS assay to identify small molecule agonists of the hypoxia (HIF-1) signaling pathway - cell viability counter screen (AID 1224844; calls by dose curve; also: nearly all actives have a fitted effect of over 50% in size). Conditions: HRE-bla ME-180 viability, CellTiter-Glo luminescence, 17 h; at 76.8 µM (top of the series) unless noted. The method in brief: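 HRE-bla ME-180 cells in medium with 0.5% dialyzed FBS were preincubated 5 hrs at 37C, exposed to compounds for 17 hrs, then viability was read as CellTiter-Glo luminescence after 30 min at room temperature, in the reporter wells.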

Assay [10] is described as follows: qHTS assay to identify small molecule agonists of the hypoxia (HIF-1) signaling pathway (AID 1224846; active = well fitted activation curve with a large enough effect in the signal ratio in the repeat runs, not every such curve was filed as active; the % refers to the signal ratio). As to conditions: HRE-bla ME-180 cells, beta-lactamase ratio, 17 h; at 76.8 µM (top of the series). The method in brief:
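HRE-bla ME-180 cells (beta-lactamase reporter under hypoxia response element) were plated at 2,000 cells/well in medium with 0.5% dialyzed FBS, rested 5 hrs, then given compounds in DMSO for 17 hrs at 37C, 5% CO2. Reporter induction was read with CCF4-AM FRET substrate.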

The nature of assay [11]: qHTS assay to identify small molecule agonists of H2AX - cell viability counter screen (AID 1224847; calls by dose curve;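 also: wild-type CHO-K1 cells; top concentration of the series differs between compounds; nearly all actives have a fitted effect of over 30% in size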). As to conditions: CHO-K1 viability, CellTiter-Glo luminescence, 3 h; at 154 µM (top of the series) unless noted. The method in brief:
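For this counter screen, overnight-attached CHO-K1 cells received test compounds (15 concentrations, 0.76% DMSO final); 3 hr later at 37C, CellTiter-Glo reagent was added and luminescence recorded after 30 min at room temperature.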

Assay [12] can be described thus: qHTS assay to identify small molecule antagonists of the estrogen related receptor (ERR) signaling pathway from Tox21 library (AID 1224848). Also: nearly all actives have a fitted effect of over 50% in size. Also: potency is read from the fitted curve at half-maximal effect. The method in brief:
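Luminescent reporter read-out (ONE-Glo) from NTP's ERR cell line after 18 h treatment at 37 C with DMSO-dissolved Tox21 compounds; cells pre-plated 6 h beforehand at 2,000 per well.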

A short description of assay [13]: qHTS assay to identify small molecule agonists of the estrogen related receptor (ERR) signaling pathway from Tox21 library (AID 1224849; calls by dose curve; also: nearly all actives have a fitted effect of over 15% in size). Conditions: ERR reporter cell line, ONE-Glo luciferase, 18 h. The method in brief:
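ERR reporter cell line (NTP) seeded, rested 6 h at 37 C/5% CO2, then pinned with Tox21 compounds in DMSO. After 18 h at 37 C, ONE-Glo luciferase luminescence was read following 30 min at room temperature.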

The nature of assay [14]: qHTS RealTime-Glo MT Cell Viability Assay in HepG2 cells - 24 hour (AID 1224867). Also: nearly all actives have a fitted effect of over 50% in size. Conditions: RealTime-Glo luminescence. The method in brief:
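Viability was tracked continuously by NanoLuc luminescence from prosubstrate reduced by living HepG2 cells, at successive time points over 40 h of compound exposure. Cells with reagent were preincubated 5 h at 37 °C before compound addition.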

The nature of assay [15]: qHTS RealTime-Glo MT Cell Viability Assay in HEK293 cells - 32 hour (AID 1224868). As to conditions: RealTime-Glo luminescence. The method in brief:
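Viability tracked continuously by luminescence as live cells reduce a prosubstrate for NanoLuc; HEK293 cells preincubated 5 h, compound-treated at 37 C, and read at 0, 8, 16, 24, 32 and 40 h.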

A short description of assay [16]: A CellTox Green Cytotoxicity Assay to monitor cytotoxicity in HEK293 cells - 0 hour (AID 1224869). Also: nearly all actives have a fitted effect of over 50% in size. The method in brief: (§1)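 HEK293 cells premixed with CellTox Green dye were seeded at 600 cells/well and left 5 h at 37 C/5% CO2 before pin transfer of 23 nL compound in DMSO. Fluorescence from dye bound to dead-cell DNA was read during 40 h treatment.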
A short description of assay [17]: qHTS RealTime-Glo MT Cell Viability Assay in HepG2 cells - 8 hour (AID 1224873). Also: nearly all actives have a fitted effect of over 55% in size. Conditions: RealTime-Glo luminescence; at 76.8 µM (top of the series) unless noted. The method in brief:
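HepG2 cells (600/well) mixed with RealTime-Glo MT reagent, settled 5 h at 37 C/5% CO2 before compound addition. Nonlytic NanoLuc luminescence from viable-cell prosubstrate reduction read repeatedly during 40 h treatment at 37 C.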

Assay [18] can be described thus: A CellTox Green Cytotoxicity Assay to monitor cytotoxicity in HEK293 cells - 24 hour (AID 1224875). Also: nearly all actives have a fitted effect of over 45% in size. The method in brief: as §1
The target of assay [19] is Nuclear receptor subfamily 1 group I member 3 (Homo sapiens) (UniProt Q14994). Put plainly: qHTS assay to identify small molecule antagonists of the constitutive androstane receptor (CAR) signaling pathway (AID 1224838). Also: nearly all actives have a fitted effect of over 40% in size. Conditions: HepG2-CYP2B6-hCAR luciferase, CITCO-stimulated, 24 h; at 92.4 µM (top of the series).
Assay [20] shares this target. Put plainly: qHTS assay to identify small molecule agonists of the constitutive androstane receptor (CAR) signaling pathway (AID 1224839).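 Also: HepG2 cells stably carrying human CAR and a CYP2B6 luciferase reporter; nearly all actives have a fitted effect of over 15% in size.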

Values joined by “and” are separate entries in the source; they are usually repeats but may differ in a detail not shown here. Equal values may be shown once. The list shows a part of the results, in another mix than the full data. Records with an inconclusive call do not appear. Active and inactive are the calls of the source. Unless noted, calls follow the shape of the dose curve; as a rule, active = well fitted curve in the direction sought with a large enough effect in the repeat runs; inconclusive = weak or mixed curves; inactive = no such curve, though single readings can be large; an effect the other way counts as inactive or inconclusive.
% is scaled to controls: 0 for no effect and ±100 for the full control effect.

For the compound `CCOP(=O)(CC)OCC`, the viability change, negative = cytotoxic in assay [1] is inactive: 1.31%; in assay [3] (at 92.4 µM (top of the series)), inactive: 4.29%; in assay [5] (at 92.4 µM (top of the series)) it was inactive: 0.48%; in [17], inactive: 0.577%. For the same compound, the Potency entry in assay [2], in [6], in assay [12], in assay [16] and in assay [18] was “inactive” throughout. The activity change, negative = cytotoxicity in assay [4] was inactive: 0.413%; in [9], inactive: 2.13%; in assay [11], inactive: -5.04%; in assay [14] (at 76.8 µM (top of the series)), inactive: 1.04%. Also, the activation in assay [7] was inactive: 0.0679%; in [8] (at 92.4 µM (top of the series)) it was inactive: 11.2%; in assay [10] it was inactive: -0.549%. In addition, the activity change, positive = activation in [13] (at 92.4 µM (top of the series)) was inactive: 5.03%. The activity change, negative = cytotoxic in assay [15] (at 76.8 µM (top of the series)) was inactive: 7.13%.

Consider `CCOP(=O)(CC)Oc1ccc([N+](=O)[O-])cc1` (stereo not given), for which the Potency result in assay [2], in assay [16] and in assay [18] was “inactive” in each case. In addition, the viability change, negative = cytotoxic in assay [3] (at 42.5 µM (top of the series)) is inactive: -12.6%; in [5] (at 42.5 µM (top of the series)) it was inactive: -14.8%; in [17] it was inactive: -5.14% [at 35.3 µM]. Moreover, the activity change, negative = cytotoxicity is inactive: -14.8% [at 42.5 µM] in [4], inactive: 1.01% [at 35.3 µM] in assay [9], inactive: -0.231% [at 70.9 µM] in assay [11] and inactive: -5.61% in assay [14] (at 35.3 µM (top of the series)). The Potency in assay [6] was active: 3.76 µM; in assay [12], active: 7.5 µM. Besides, the activation in [8] (at 42.5 µM (top of the series)) was inactive: -3.52%. For the same compound, the activity change, positive = activation in assay [13] (at 42.5 µM (top of the series)) was inactive: -50.4%. Further, the activity change, negative = cytotoxic in assay [15] (at 35.3 µM (top of the series)) is inactive: -6.46%.

Take `Cc1ccc([N+](=O)[O-])cc1[N+](=O)[O-]`: the viability change, negative = cytotoxic was inactive: 3.98% and inactive: 6.27% in [1]; inactive: 2.72% and inactive: 4.87% in assay [5] (at 92.4 µM (top of the series)); inactive: 1.82% and inactive: -0.267% in assay [17]. The Potency entry in [2], in [20], in [6], in assay [12], in assay [16] and in [18] was “inactive” throughout. Besides, the activity change, negative = cytotoxicity in assay [4] is inactive: -0.297% and inactive: 2.43%; in [9], inactive: 7.7% and inactive: -7.85%; in assay [11], inactive: -0.236% and inactive: 2.51%. The activity, negative = inhibition in assay [19] was inactive: 27% and inactive: 24.4%. For the same compound, the activation in [7] is inactive: 1.36% and inactive: 0.116%; in assay [10], inactive: -1.1% and inactive: -1.05%. Moreover, the activity change, positive = activation in assay [13] (at 92.4 µM (top of the series)) was inactive: 0.906% and inactive: 4.61%. Also, the activity change, negative = cytotoxic in assay [15] (at 76.8 µM (top of the series)) is inactive: 1.34% and inactive: 4.88%.
